Measurements from US4690926A, “Boxazomycin A and B, new antibiotics containing benzoxazole nucleus” (Bristol-Myers Company, priority 1986, dated 1987).

Test system: anaerobes
Conditions: in vitro

## NC[C@H]1O[C@H](O[C@H]2[C@H](O)[C@@H](O[C@H]3O[C@H](CO)[C@@H](O)[C@H](N)[C@H]3O)[C@H](N)C[C@@H]2N)[C@H](O)[C@@H](O)[C@@H]1O [Kanamycin, kanamycin, reference compound]
  activity against anaerobes: inactive against anaerobes
